Reference: PubChem BioAssay AID485349 (National Center for Advancing Translational Sciences (NCATS), 2010)
The list shows a part of the results, in another mix than the full data. The source made the active and inactive calls. Calls come from the whole dose curve; as a rule, active = well fitted activation curve with a large enough effect; inconclusive = small, poorly fitted or top-dose-only effect; inactive = no such curve, though single readings can be large or run the other way.

test: qHTS Assay for Identifying a Potential Treatment of Ataxia-Telangiectasia; settings: […] A-T fibroblasts, KAP-1 phosphorylation AlphaLISA, neocarzinostatin DNA damage 30 min before lysis; at 57.5 µM (top of the series) unless noted; note: % of control where 0% means no effect; nearly all actives have a fitted effect of over 45% in size
How it was run: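 hTERT-immortalized A-T patient fibroblasts ([…]), 500 cells/well in OPTI-MEM, 1% FBS, got compounds for 60 min, then NCS for 30 min at 37C. Lysates were then assayed for phospho-KAP-1 by AlphaLISA (anti-pKAP1 donor, anti-KAP1 acceptor beads), 6 hr at 25C.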

| Structure (SMILES) | activation |
| --- | --- |
| Clc1ccc(Cl)c(NC2=NCC(CBr)S2)c1 (stereo not drawn) | inactive: 1.62% |
| COc1ccccc1OP(=O)(Nc1ccc(C)cn1)Oc1ccccc1OC | inactive: -0.589% [at 11.5 µM] |
| Cc1ccc(OP(=O)(Nc2nccs2)Oc2ccc(C)cc2)cc1 | inactive: 11.5% |
| CN(C(=O)Cc1ccc(Cl)c(Cl)c1)[C@H]1CCCC[C@H]1N1CCCC1 | inactive: -0.947% |
| Cc1ccc(N/C(=N/P(=O)(N2CCOCC2)N2CCOCC2)N2CCOCC2)cc1 | inactive: 9.21% |
| NC(=O)c1cc([N+](=O)[O-])cc([N+](=O)[O-])c1N | inactive: -1.3% |
| Oc1ccccc1CNc1ccccn1 | inactive: 0.93% |
| O=C(NC(Sc1ccncn1)C(Cl)(Cl)Cl)c1ccccc1 (stereo not drawn) | inactive: 1.34% |
| Nc1cc(N)c2nonc2c1[N+](=O)[O-] | inactive: 6.06% |
| CC(C)CC(=O)NC(Sc1ccc(Cl)cc1)C(Cl)(Cl)Cl (stereo not drawn) | inactive: -3.32% |
| COc1ccc2nc(NP(=O)(c3ccccc3)c3ccccc3)sc2c1 | inactive: 11.8% |
| COc1cc(I)ccc1[As](=O)(O)O | inactive: -4.36% |
| Cc1c2c(nc3ccccc13)SC(C(Cl)Cl)C2 (stereo not drawn) | inactive: 5.94% |
| O=C(OC1CN2CCC1CC2)C12CC3CC(CC(C3)C1)C2 (stereo not drawn) | inactive: 4.42% |
| Cc1cc(=O)[nH]c(N[N+](=O)[O-])n1 | inactive: 1.3% |
| COc1ccc(N/C(=N/P(=O)(N2CCOCC2)N2CCOCC2)N2CCOCC2)cc1 | inactive: -2.51% |
| Cc1ccc(OP(=O)(Nc2ccc([N+](=O)[O-])cn2)Oc2ccc(C)cc2)cc1 | inactive: -5.45% |
| Cc1ccc2nc3c(c(C)c2c1)CC(C(Cl)Cl)S3 (stereo not drawn) | inactive: 1.32% |
| O=[As](O)(c1ccc(O)cc1)c1ccccc1O | inactive: -1.79% |
| C[As](=O)(O)c1cccc(C(=O)O)c1 | inactive: 6.62% |
| COc1cc(C(=O)NCC2(N3CCOCC3)CCCCC2)ccc1OCC(C)C | inactive: -1.6% |
| CC(C)NC(=O)NP(=O)(Oc1ccccc1)Oc1ccccc1 | inactive: -0.897% |
| CCN(CC)C(=S)SC(NC=O)C(Cl)(Cl)Cl (stereo not drawn) | inactive: 4.21% |
| O=[N+]([O-])c1cc([N+](=O)[O-])c(-c2ccn[nH]2)s1 | inactive: 2.76% |
| ClCCSc1nnc(-c2cccnc2)o1 | inactive: 2.31% |
| CC(C)c1ccc(OP(=O)(Nc2ccccn2)Oc2ccccc2F)cc1 (stereo not drawn) | inactive: -1.35% |

| Structure (SMILES) | activation |
| --- | --- |
| CCCCOc1ccc(C(=O)NCC2(N3CCCCC3)CCCCC2)cc1OC | inactive: -1.18% |
| Cc1cc(SC(NC(=O)c2ccccc2)C(Cl)(Cl)Cl)nc(C(C)C)n1 (stereo not drawn) | inactive: -0.575% |
| CCOC(=O)Nc1ccc([As](=O)(O)O)c(O)c1 | inactive: 7% |
| Cc1cc(SC(NC=O)C(Cl)(Cl)Cl)ncn1 (stereo not drawn) | inactive: -7.28% |
| O=P(Nc1ccccn1)(c1cccc2ccccc12)c1cccc2ccccc12 | inactive: 3.1% |
| O=[N+]([O-])c1ccc(Nc2ccc(Oc3ccc([N+](=O)[O-])cc3[N+](=O)[O-])cc2)c([N+](=O)[O-])c1 | inactive: -5.03% |
| CCOC(=O)Nc1cccc([As](=O)(O)O)c1 | inactive: -1.67% |
| O=C(COc1ccccc1)OC1CN2CCC1CC2 (stereo not drawn) | inactive: 4.47% |
| O=C(Nc1ccncc1[N+](=O)[O-])c1ccc([N+](=O)[O-])cc1[N+](=O)[O-] | inactive: -14.3% |
| COP1(=S)c2c(C)nn(CCC#N)c2N=C(c2ccc(F)cc2)N1C (stereo not drawn) | inactive: -3.4% |
| O=C(OC1CN2CCC1CC2)c1cccc([N+](=O)[O-])c1 (stereo not drawn) | inactive: -31.4% |
| CCOC(=O)c1ccc(NC(=O)C(C)(CCl)SC)cc1 (stereo not drawn) | inactive: -12.2% |
| Clc1n[nH]nc1-c1nn[nH][15n]1 | inactive: -0.905% |
| CC(C)(C)C(=O)NC(Sc1ncccn1)C(Cl)(Cl)Cl (stereo not drawn) | inactive: 10.7% |
| CCC1=CC2Cc3nc4ccc(Cl)cc4c(N)c3C(C1)C2 (stereo not drawn) | inactive: 17.2% |
| O=P1(Nc2ccccn2)COc2ccccc2OC1 | inactive: 1.05% |
| CCOP(=O)(NC(=NC(C)c1ccccc1)NC(C)c1ccccc1)OCC (stereo not drawn) | inactive: 3.66% |
| CCOP(=O)(Nc1ccc(C)cn1)OCC | inactive: 11.8% |
| CC(C)/C=N\N=C(\N)N[N+](=O)[O-] | inactive: -1.33% |
| O=[As](O)(c1ccccc1Br)c1ccccc1Br | inactive: -1.2% |
| COc1ccccc1CNC(=O)COC(=O)C(O)(c1ccccc1)c1ccccc1 | inactive: -0.373% |
| CN(C)C1(CNC(=O)c2ccc(S(C)(=O)=O)cc2)CCCCC1 | inactive: -3.91% |
| O=C(/C=C/c1ccccc1)OC1CN2CCC1CC2 (stereo not drawn) | inactive: -7.34% |
| Cc1nn(-c2ccccc2)c2c1P(=O)(N1CCOCC1)N(C)C(c1ccccc1)=N2 (stereo not drawn) | inactive: -1.71% |
| Cc1ccc(C(=O)OC2CN3CCC2CC3)cc1 (stereo not drawn) | inactive: 2.94% |
| CC1CCC(C(C)C)C(OP(=O)(Nc2ccccn2)c2ccccc2)C1 (stereo not drawn) | inactive: -0.673% |

| Structure (SMILES) | activation |
| --- | --- |
| Nc1cccc([As](=O)(O)c2ccccc2)c1 | inactive: 1.22% |
| Cc1ccc(OCC(=O)OC2CN3CCC2CC3)cc1 (stereo not drawn) | inactive: -0.0614% |
| NS(=O)(=O)c1cccc(NC(=O)COC(=O)C(O)(c2ccccc2)c2ccccc2)c1 | inactive: 5.69% |
| O=P1(Nc2ccc(Br)cn2)COc2ccccc2OC1 | inactive: 10.4% |
| O=P1(Nc2ncccn2)COc2ccccc2OC1 | inactive: 2.81% |
| O=C(O)COc1ccc([As](=O)(O)O)cc1[N+](=O)[O-] | inactive: -3.64% |
| Nc1ccccc1[As](=O)(O)c1ccccc1 | inactive: 6.13% |
| CCOP1(=S)c2c(C)nn(CCC#N)c2N=C(c2ccccc2F)N1C (stereo not drawn) | inactive: -0.268% |
| O=P(Nc1nccs1)(Oc1ccccc1)Oc1ccccc1 | inactive: 4.21% |
| O=P(Nc1nccs1)(c1ccccc1)c1nc2ccccc2s1 (stereo not drawn) | inactive: -1.18% |
| CS(=O)(=O)c1cc([N+](=O)[O-])c2no[n+]([O-])c2c1 | inactive: -0.727% |
| N#CCCN(C(=O)COC(=O)C(O)(c1ccccc1)c1ccccc1)c1ccc(F)cc1 | inactive: -0.806% |
| CCOP1(=S)c2c(C)nn(CCC#N)c2N=C(c2ccc(F)cc2)N1C (stereo not drawn) | inactive: 4.63% |
| CN(C(=O)Cc1ccccc1)[C@@H]1CC[C@]2(CCCO2)C[C@H]1N1CCCC1 | inactive: -5.41% |
| O=[N+]([O-])c1ccc2c(c1)nnn2O | inactive: 1.59% |
| NC(=O)Nc1ccc([As](=O)(O)O)cc1 | inactive: -9.68% |
| O=[As](O)(c1cccc(O)c1)c1cccc(O)c1 | inactive: -2.82% |
| O=C(OC1CN2CCC1CC2)c1ccc(Cl)cc1 (stereo not drawn) | inactive: 8.37% |
| O=[As](O)(O)c1cccnc1 | inactive: -11.5% |
| COc1cc(C(=O)NCC2(N3CCOCC3)CCCCC2)cc(Cl)c1OC(C)C | inactive: 0.0065% |
| CS(=O)(=O)c1ccc(Cl)c(NC(=O)COC(=O)C(O)(c2ccccc2)c2ccccc2)c1 | inactive: -2.25% |
| COc1cc(C2NCCC3(OCCO3)C2(C)C)cc(OC)c1OC (stereo not drawn) | inactive: 3.09% |
| CCOP(=O)(Nc1cccc2ccccc12)OCC | inactive: 2.58% |
| Cc1ccc(NCCc2c([N+](=O)[O-])cc([N+](=O)[O-])cc2[N+](=O)[O-])cc1 | inactive: -0.566% |
| Nc1cccc2c([As](=O)(O)O)cccc12 | inactive: 0.725% |
| CCCOP(=S)(Nc1nc(N)cc(=O)[nH]1)OCCC | inactive: -72.7% |
